Source: paper PMC3463759 (Clinical cancer research : an official journal of the …, 2012)
Like-named read-outs stand apart in the source and are kept apart here.

[1] = all patients (N=20), all cycles
[2] = dasatinib 100 mg qd + paclitaxel + carboplatin, N=6, all cycles, patients (%)
[3] = dasatinib 120 mg qd + paclitaxel + carboplatin, N=3, all cycles, patients (%)

## Cc1nc(Nc2ncc(C(=O)Nc3c(C)cccc3Cl)s2)cc(N2CCN(CCO)CC2)n1 [dasatinib, N-(2-chloro-6-methyl-phenyl)-2-(6-(4-(2-hydroxyethyl)-piperazin-1-yl)-2-methylpyrimidin-4-ylamino)thiazole-5-carboxamide]
[1]
  anemia grade 3–4: 30%
  fatigue grade 2–3: 10%
[2]
  Anemia, Grade 1: 1 (17)
  Anemia, Grade 2: 4 (67)
  Anemia, Grade 3: 1 (17)
  Dermatogic: Flushing, Grade 1: 1 (17)
  Fatigue, Grade 1: 2 (33)
  Fatigue, Grade 2: 1 (17)
  Gastrointestinal: Anorexia, Grade 2: 1 (17)
  Gastrointestinal: Constipation, Grade 2: 2 (33)
  Gastrointestinal: Diarrhea, Grade 1: 4 (67)
  Gastrointestinal: Diarrhea, Grade 2: 2 (33)
  Gastrointestinal: Dysgeusia, Grade 1: 1 (17)
  Gastrointestinal: Nausea, Grade 1: 2 (33)
  Gastrointestinal: Nausea, Grade 2: 2 (33)
  Gastrointestinal: Vomiting, Grade 1: 2 (33)
  Gastrointestinal: Vomiting, Grade 2: 1 (17)
  Neurologic: Anxiety, Grade 2: 1 (17)
  Neurologic: Sensory neuropathy, Grade 1: 3 (50)
  Neurologic: Sensory neuropathy, Grade 2: 1 (17)
  Neutropenia, Grade 3: 2 (33)
  Neutropenia, Grade 4: 4 (67)
  Pain: Head, Grade 1: 1 (17)
  Pain: Other, Grade 1: 1 (17)
  Pain: Other, Grade 3: 1 (17)
  Pulmonary: Cough, Grade 1: 1 (17)
  Pulmonary: Dyspnea, Grade 3: 1 (17)
[3]
  Anemia, Grade 2: 2 (67)
  Anemia, Grade 3: 1 (33)
  Dermatogic: Flushing, Grade 1: 1 (33)
  Fatigue, Grade 1: 3 (100)
  Gastrointestinal: Constipation, Grade 1: 1 (33)
  Gastrointestinal: Diarrhea, Grade 1: 3 (100)
  Gastrointestinal: Nausea, Grade 1: 3 (100)
  Gastrointestinal: Vomiting, Grade 1: 2 (67)
  Neurologic: Sensory neuropathy, Grade 1: 2 (67)
  Neutropenia, Grade 3: 1 (33)
  Neutropenia, Grade 4: 2 (67)
  Pulmonary: Cough, Grade 1: 1 (33)
  Pulmonary: Dyspnea, Grade 1: 2 (67)
  Pulmonary: Dyspnea, Grade 2: 1 (33)
